# Reported water solubility values for industrial, environmental and drug-like chemicals

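OPERA's authors assembled the values from existing databases and did not measure them anew. A listed value is a point estimate from one report or more. Method and conditions are not stated for these values. The measured form (salt, isomer or mixture) is not always the one drawn. Some entries may be limits or estimates that an upstream database listed as plain numbers.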

Water solubility is log10 of mol/L, nominally at 25 °C; higher is more soluble.

Cl.Nc1cc(Cl)ccc1Cl [2,5-Dichloroaniline--hydrogen chloride (1/1)] has log S -2.075 (log10 mol/L). Cc1c(O)cc([N+](=O)[O-])cc1[N+](=O)[O-] [2-Methyl-3,5-dinitrophenol] is reported with log S -4.183 (log10 mol/L). The entry for Cc1cc(OC(=O)N(C)C)nn1C(=O)N(C)C [Dimetilan] lists log S -0.062 (log10 mol/L). CCOCn1c(-c2ccc(Cl)cc2)c(C#N)c(Br)c1C(F)(F)F [Chlorfenapyr] has log S -6.561 (log10 mol/L). N#CCCN1C(=O)C(O)N=C(c2ccccc2F)c2cc(Cl)ccc21 (configuration not stated) [Cinolazepam] has log S -4.474 (log10 mol/L). For CCC1(c2ccccc2)C(=O)N(CC(O)CO)C(=O)N=C1O (configuration not stated) the data give log S -1.79 (log10 mol/L).

CNC(C)(C)Cc1ccccc1 [Mephentermine] is reported with log S -2.553 (log10 mol/L). The entry for NC(=O)NC(O)C(Cl)(Cl)Cl (configuration not stated) [(1-Hydroxy-2,2,2-trichloroethyl)urea] lists log S -0.715 (log10 mol/L). The entry for O=P1(NCCCl)OCCCN1CCCl (configuration not stated) [Ifosfamide] lists log S -1.241 (log10 mol/L). The entry for O=C(C(Br)Br)C(Br)(Br)Br [Pentabromoacetone] lists log S -6.656 (log10 mol/L). COc1ccc(C(OC[C@H]2O[C@@H](n3cc(C)c(=O)[nH]c3=O)C[C@@H]2OP(OCCC#N)N(C(C)C)C(C)C)(c2ccccc2)c2ccc(OC)cc2)cc1 (some centres not stated) is reported with log S -6.164 (log10 mol/L). CC(Br)C(C)(Br)C(=O)O (configuration not stated) [2,3-Dibromo-2-methylbutanoic acid] has log S -1.394 (log10 mol/L).

CC(C)[C@@]1(O)[C@@H](OC(=O)c2ccc[nH]2)[C@@]2(O)[C@@]3(C)C[C@]4(O)O[C@@]5([C@H](O)[C@@H](C)CC[C@]35O)[C@@]2(O)[C@@]14C [Ryanodine] has log S -1.489 (log10 mol/L). CCOP(=S)(OCC)SCCl [Chlormephos] is reported with log S -3.59 (log10 mol/L). C[C@]12CC[C@H]3[C@@H](CCC4=CC(=O)CC[C@@H]43)[C@@H]1CC[C@@H]2OC(=O)CCc1ccccc1 [Nandrolone phenpropionate] is reported with log S -5.948 (log10 mol/L). ClC(Cl)(Cl)C(Cl)(Cl)Cl [Hexachloroethane] is reported with log S -3.673 (log10 mol/L). O=c1oc2ccccc2c(O)c1C1CC(c2ccc(-c3ccccc3)cc2)Cc2ccccc21 (configuration not stated) [Difenacoum] is reported with log S -5.42 (log10 mol/L). The entry for CN(C)CCCc1ccccc1 [1-Dimethylamino-3-phenylpropane] lists log S -1.657 (log10 mol/L).

CN1CC[C@]23c4c5ccc(O)c4O[C@H]2C(=O)CC[C@@]3(O)[C@H]1C5 [Oxymorphone] has log S -1.071 (log10 mol/L). For Nc1cccc(Cl)c1Cl [2,3-Dichloroaniline] the data give log S -2.13 (log10 mol/L). For CC(C)(C)C1CCC(OC(=O)OOC(=O)OC2CCC(C(C)(C)C)CC2)CC1 (configuration not stated) the data give log S -8.822 (log10 mol/L). For COP(=S)(OC)Oc1ccc(S(C)=O)c(C)c1 (configuration not stated) [Mesulfenfos] the data give log S -4.9 (log10 mol/L). N#C[C@H]1CCC[C@@H]2OC[C@H](c3ccccc3)N21 [(+)-2-Cyano-6-phenyloxazolopiperidine] has log S -3.194 (log10 mol/L). Cc1ncc(CNC(N)=O)c(N)n1 [N-[(4-Amino-2-methylpyrimidin-5-yl)methyl]urea] has log S -2.258 (log10 mol/L).

OC[C@@H](O)[C@H]1O[C@@H]2O[C@H](C(Cl)(Cl)Cl)O[C@@H]2[C@H]1O [Chloralose] has log S -1.84 (log10 mol/L). Listed for CCOC(=O)C(Cl)C(=O)OCC [Diethyl chloromalonate]: log S -1.721 (log10 mol/L). COC(N)=O [Methyl carbamate] has log S 0.97 (log10 mol/L). Clc1ccccc1C(Cl)(Cl)Cl [Benzene, 1-chloro-2-(trichloromethyl)-] is reported with log S -5.044 (log10 mol/L). CCOP(=S)(OCC)SCSc1cc(Cl)ccc1Cl [Phenkapton] is reported with log S -6.932 (log10 mol/L). O=C1NC(=S)NC(=O)C1C(=O)Nc1ccccc1 [Merbarone] is reported with log S -1.642 (log10 mol/L).

The entry for NCCNCC(N)CCC/N=C(\N)N[N+](=O)[O-].O=C(O)C(F)(F)F.O=C(O)C(F)(F)F.O=C(O)C(F)(F)F (stereo partly drawn) lists log S -1.071 (log10 mol/L).

The first 4 entries again:

Cl.Nc1cc(Cl)ccc1Cl [2,5-Dichloroaniline--hydrogen chloride (1/1)] is reported with log S -2.075 (log10 mol/L).
Cc1c(O)cc([N+](=O)[O-])cc1[N+](=O)[O-] [2-Methyl-3,5-dinitrophenol] is reported with log S -4.183 (log10 mol/L).
Cc1cc(OC(=O)N(C)C)nn1C(=O)N(C)C [Dimetilan] is reported with log S -0.062 (log10 mol/L).
CCOCn1c(-c2ccc(Cl)cc2)c(C#N)c(Br)c1C(F)(F)F [Chlorfenapyr] is reported with log S -6.561 (log10 mol/L).

From the experimental data distributed with OPERA 2.9.